Cneo AK release: causes C. neoformans cell lysis; adenylate kinase release luminescence, 4 h; normalised: neutral wells 0, clomiphene wells 100; lysis activity, % at 15 µM; actives 0.2% (n = 360,000);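 active means mean lysis activity across replicates of at least 80%, whatever share of replicates individually reach that level; inactive means mean lysis activity below 80%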
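Material – Cryptococcus neoformans yeast cells · Quantity – 5 × 10^6 yeast cells/mL · Buffer or medium – YPD medium · Compound – single dose · Timing – 4 h static compound exposure, 37 °C, read 1 h post-reagent · Signal – adenylate kinase release luminescence · Read-out basis – lysis from increased AK signal · Benchmarks – Clomiphene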
miR-122 sensor: inhibitors of miR-122 in Huh7 cells; Huh7 miR-122 Renilla luciferase sensor, 48 h; neutral wells = 0, positive control = 100; activation (reporter increase), % at 12.5 µM; actives 0.3% (n = 340,000); AID 602342;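 active means mean replicate activation score at least 90 and every replicate individually at or above 90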;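 further: higher luciferase means less miR-122 activity so hits act as miR-122 inhibitors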
Glyco luc inh: blocks N-linked glycosylation in D54 reporter cells; D54 ERlucT glycosylation luciferase reporter, 24 h; percent of 100 nM tunicamycin response; reporter increase, % at 12.5 µM; actives 0.23% (n = 360,000);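 active means mean luciferase reporter signal, scaled so untreated is 0 and the glycosylation-blocking control 100, at or above a set limit in every replicate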;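 further: luciferase carries N-glycosylation sites so blocking glycosylation raises the light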
Yeast UUG start: yeast start codon fidelity modulation | S. cerevisiae UUG-firefly luciferase reporter, luminescence/redox ratio | activity score, % at 18.7 µM | hit rate 0.13% among 350,000 | AID 602363;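 active means replicate mean at a twofold rise or more, about +100% in these data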;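 further: firefly luciferase made from a UUG start codon reports start codon fidelity; reporter light over untreated wells divided by growth signal over untreated wells; some hits fall short of that in this replicate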
C2C12 statin: suppression of simvastatin myotoxicity. C2C12 myotubes + simvastatin, ATP luminescence, 48 h; scaled: DMSO 0, geranylgeraniol control 100. rescue of ATP level, % at 7.49 µM. actives 0.78% (n = 330,000). AID 602340;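 active means mean ATP rescue above about 67%, or every replicate alone reaching that limit, limit read from the data, passing the limit was not always enough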;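 further: myotubes were challenged with 10 µM simvastatin during compound exposure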
Hits are given with their value; i = inactive; nt = no result given. Shown are actives, neighbours in structure and some others; about 1.2% of the full set was active somewhere.

SMILES | Cneo AK release | miR-122 sensor | Glyco luc inh | Yeast UUG start | C2C12 statin
Cc1ccc(C(C)C)cc1S(=O)(=O)NCc1ccccn1 | i | 283 | i | i | i
Cc1cc(C)c(S(=O)(=O)NCc2ccccn2)cc1C | i | 101 | i | i | i
Cc1ccc(S(=O)(=O)Nc2ccc(-n3cnnn3)cc2)cc1 | i | nt | i | i | i
Cc1ccc(S(=O)(=O)Nc2ccc(-n3cnnn3)cc2)c(C)c1 | i | 149 | i | i | i
COc1ccc(C2NC(=S)NC3=C2CCCC3=C2SCCS2)cc1 (stereo not drawn) | i | i | 593 | i | i
S=C1NC2=C(CCCC2=C2SCCCS2)C(c2ccccc2)N1 (stereo not drawn) | nt | nt | i | nt | nt
Cc1ccc(S(=O)(=O)N(C)C[C@H]2Oc3ccc(NC(=O)C4CC4)cc3CC(=O)N([C@@H](C)CO)C[C@@H]2C)cc1 | i | i | nt | i | i
COc1cccc(NC(=O)N[C@@H]2C=C[C@H](CC(=O)N3CCOCC3)O[C@H]2CO)c1 | i | nt | nt | i | i
N#CC1=C(N)OC2=C(C(=O)CCC2)[C@]12C(=O)N(CC(N)=O)c1ccccc12 | i | i | i | i | 109
O=c1[nH]ncc2c3ccccc3n(Cc3ccccc3)c12 | i | i | i | i | 108
CCCCOc1ccc(Cc2n[nH]c(=S)n2N)cc1 | i | i | i | i | i
CCCC#Cc1ccc2c(c1)O[C@@H](CN(C)C(=O)CC)[C@@H](C)CN([C@@H](C)CO)S2(=O)=O | i | i | nt | i | i
O=C(CCc1ccccc1)Nc1ncc2c(n1)CCCC2=O | i | i | i | i | i
CC1(C)CC(=O)c2cnc(NC(=O)CCc3ccccc3)nc2C1 | i | i | i | i | 93
O=C(/C=C/c1ccccc1)C1=C(O)C(=O)N(CCO)C1c1ccc2c(c1)OCO2 (stereo not drawn) | i | i | i | i | 115
O=C(C=Cc1ccc2c(c1)OCO2)c1ccccc1 | i | i | i | i | i
Cc1cc(=O)n2c3c(c4c(cc13)c(CN(C)C)cc(=O)n4C)OC2 | nt | i | 31 | nt | nt
COc1cc2nc(Nc3ccc(C)c(C)c3)nc(N)c2cc1OC | i | nt | i | i | i
COc1cc2nc(N(C)C)nc(N)c2cc1OC | i | i | 48 | i | 78
N#C[C@H]1[C@@H](c2ccc(-c3cccc(F)c3)cc2)[C@H](CO)N1C(=O)CN1CCOCC1 | i | nt | nt | nt | i
CCn1c(SCC(=O)Nc2ccc(C(C)=O)cc2)nc2c([nH]c3ccccc32)c1=O | i | i | 92 | i | i
Fc1ccc(CNc2ccccn2)cc1 | i | i | i | i | i
CSc1ccc(CNc2ccccn2)cc1 | i | i | i | i | 82
CO[C@H]1CN(C)C(=O)c2cc(NC(=O)Nc3cccc(F)c3)ccc2OC[C@H](C)N(C)C[C@H]1C | 103 | i | nt | i | i
CCCN1C[C@@H](C)[C@H](OC)CN(C)C(=O)c2ccc(NC(=O)c3cccc(F)c3)cc2OC[C@@H]1C | 115 | nt | nt | i | i
SMILES | Cneo AK release | miR-122 sensor | Glyco luc inh | Yeast UUG start | C2C12 statin
O=C(Cc1ccncc1)NCC[C@@H]1CC[C@@H](NC(=O)C2CCC2)[C@@H](CO)O1 | i | nt | nt | nt | i
Cc1nnc(NC(=O)C2CCCN(S(=O)(=O)c3ccccc3C(F)(F)F)C2)s1 (stereo not drawn) | i | i | i | i | i
Cc1nnc(NC(=O)C2CCCN(S(=O)(=O)Cc3ccccc3)C2)s1 (stereo not drawn) | i | i | i | i | 120
CCOc1ccc(C(=O)Nc2nc(C)cc(C)n2)cc1[N+](=O)[O-] | i | i | i | i | 93
COc1ccccc1S(=O)(=O)N1C[C@@H](O)COC[C@@H]2O[C@H](CC(=O)O)CC[C@H]21 | i | i | nt | i | i
Cc1ccc(S(=O)(=O)NNC(=O)c2ccccc2-n2cccc2)cc1 | i | i | i | i | i
COc1ccc(S(=O)(=O)NNC(=O)c2ccccc2-n2cccc2)cc1 | i | i | i | i | 112
O=C(Nc1ccc2c(c1)[C@H]1C[C@@H](CC(=O)N3CCc4ccccc4C3)O[C@@H](CO)[C@H]1O2)c1cccnc1 | i | i | nt | nt | i
O=C(CN(Cc1ccccc1C(F)(F)F)C(=O)CNC(=O)c1ccco1)NC1CCCC1 | i | i | i | i | 113
CC(=O)N1N=C(c2ccc(C)cc2)OC1c1ccc(Br)cc1 (stereo not drawn) | nt | i | i | nt | i
CCOc1ccc(Br)cc1C1=NN(C(C)=O)C(c2ccc([N+](=O)[O-])s2)O1 (stereo not drawn) | i | i | 36 | i | i

Screening data from PubChem BioAssay.
